The results in this text go back to patent publication US20220387396A1, “METHODS OF TREATING THE SYMPTOMS OF AUTISM SPECTRUM DISORDER” (MapLight Therapeutics, Inc., priority 2019, published 2022).

Amino acid sequences for entries named in this document (tags omitted).
UniProt P28222, whole entry: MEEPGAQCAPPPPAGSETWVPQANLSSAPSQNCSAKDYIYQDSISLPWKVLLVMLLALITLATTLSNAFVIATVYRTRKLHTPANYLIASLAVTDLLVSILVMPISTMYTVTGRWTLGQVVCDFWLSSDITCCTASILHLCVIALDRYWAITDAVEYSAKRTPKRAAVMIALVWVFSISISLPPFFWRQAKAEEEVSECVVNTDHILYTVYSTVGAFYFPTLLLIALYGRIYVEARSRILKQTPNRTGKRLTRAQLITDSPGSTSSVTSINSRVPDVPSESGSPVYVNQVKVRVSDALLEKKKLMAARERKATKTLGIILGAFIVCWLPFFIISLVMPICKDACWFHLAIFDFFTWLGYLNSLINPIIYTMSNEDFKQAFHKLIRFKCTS

The assay deals with 5-HT1b receptor (Homo sapiens, UniProt P28222). In words: Radioligand binding competition assay with 3H-5-CT. The note with it: derived from IC50 using Cheng-Prusoff equation. An excerpt:
The Ki values were derived from IC50 values using Cheng-Prusoff equation.

Compound `CN[C@@H]1CCc2[nH]c3ccc(C(N)=O)cc3c2C1` [Frovatriptan, frovatriptan] yielded a Ki of 3.36 nM.

The term Ki denotes a measure of affinity in units of concentration, obtained from inhibition or displacement. A lower Ki goes with tighter binding.
